Among the data in PubChem BioAssay AID758 (NMMLSC, 2007) are GTP binding activity (percent of control) values, retold here.

Structures are written as SMILES. The entries are a selection whose mix differs from that of the whole data set. The source made the active and inactive calls.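 The calls were made as follows: active = fluorescent GTP binding to Rab7 beads changed by at least 20 points from the 100% baseline, either direction, mostly lower; inconclusive = compound itself probably fluorescent, or too few beads counted; inactive = the rest.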

The test system of the assay is Rab7 GTPase wild type (dog), Bodipy-FL-GTP binding. The assay is described as follows: wildtype dog Rab7 nucleotide binding alteration – biochemical, multiplex bead flow cytometry, primary screen (AID 758).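 Also: median green fluorescence of bound Bodipy-FL-GTP per Rab7 bead population.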 The conditions noted are these: GST-Rab7 beads, fluorescent GTP binding, at 10 µM, actives lie on both sides, untreated = 100%, excess cold GTP = 0%.
Take `Cc1nc2ccc3ccccc3c2s1.O=[N+]([O-])c1cc([N+](=O)[O-])c(O)c([N+](=O)[O-])c1`: the GTP binding activity (percent of control) is inactive: 98%.
Regarding `CCOP(C)(=S)SCC(=O)NC(C)(CC)C(=O)O` (configuration not stated), the GTP binding activity (percent of control) is inactive: 98%.
Turning to `CP(=O)(Nc1ccc2c(c1)OCCO2)Oc1ccccc1` (configuration not stated), the GTP binding activity (percent of control) was inactive: 98%.
For `Cc1ccccc1NP(C)(=O)Nc1ccccc1C`, the GTP binding activity (percent of control) was inactive: 98%.
As for `COc1ccc(OP(C)(=O)Nc2cccc(Br)c2)cc1` (configuration not stated), the GTP binding activity (percent of control) is inactive: 98%.
In the case of `COc1ccc(NP(C)(=O)Oc2ccccc2OC)cc1` (configuration not stated), the GTP binding activity (percent of control) was inactive: 103%.
Regarding `CN(C)CCOC(=O)C(O)(c1ccccc1)C1CCCCC1` (configuration not stated), the GTP binding activity (percent of control) was inactive: 98%.
For `O=[N+]([O-])c1cc([N+](=O)[O-])c(NCC2CCS(=O)(=O)C2)c([N+](=O)[O-])c1` (configuration not stated), the GTP binding activity (percent of control) is inactive: 95%.
Take `COc1ccc(OP(C)(=O)Nc2ccc(SC(F)(F)F)cc2)cc1` (configuration not stated): the GTP binding activity (percent of control) is inactive: 97%.
As to `CCOC(=O)c1ccc(NP(C)(=O)Oc2ccc(F)cc2)cc1` (configuration not stated), the GTP binding activity (percent of control) was inactive: 93%.
In the case of `CCN(CC)CCCOC(=O)C(O)(c1ccccc1)C1CCCCC1` (configuration not stated), the GTP binding activity (percent of control) was inactive: 98%.
To `CP(=O)(Nc1ccccc1)Oc1ccc(F)cc1` (configuration not stated) belongs inactive: 99%; to `CP(=O)(Nc1ccccc1F)Oc1ccccc1` (configuration not stated), inactive: 100%.
To `O=C(OCCN1CCN(CCOCc2ccccc2)CC1)C(O)(c1ccccc1)c1ccccc1` belongs inactive: 103%; to `CN(C)CCOC(=O)C(O)(c1ccccc1)C1CCCC1` (configuration not stated), inactive: 96%; to `COc1ccc(OP(C)(=O)Nc2ccccn2)cc1` (configuration not stated), inactive: 94%.
With `O=[N+]([O-])c1cc([N+](=O)[O-])c(Nc2ccccn2)c([N+](=O)[O-])c1`, the GTP binding activity (percent of control) was inactive: 106%.
Then `Cc1c(NP(C)(=O)Oc2ccc(C(C)C)cc2)c(=O)n(-c2ccccc2)n1C` (configuration not stated), with inactive: 101%; and `CCc1ccc(OP(C)(=O)O)cc1`, with inactive: 100%.
Then `COc1ccccc1OP(C)(=O)Nc1ccc(C)cc1C` (configuration not stated), with inactive: 101%; and `CP(=O)(Nc1ccccn1)Oc1ccccc1` (configuration not stated), with inactive: 102%; and `Cc1cc(C)cc(OP(C)(=O)Nc2cccc(C(F)(F)F)c2)c1` (configuration not stated), with inactive: 96%.
As to `COc1ccc(OP(C)(=O)Nc2ccccc2Br)cc1` (configuration not stated), the GTP binding activity (percent of control) is inactive: 101%.
For `COc1ccccc1OP(C)(=O)Nc1ccc(C)c(C)c1` (configuration not stated), the GTP binding activity (percent of control) is inactive: 98%.
To `Cc1nc2ccc3ccccc3c2o1.O=[N+]([O-])c1cc([N+](=O)[O-])c(O)c([N+](=O)[O-])c1` belongs inactive: 104%; to `CP(=O)(OCCOc1ccccc1)OCCOc1ccccc1`, inactive: 105%; to `CP(=O)(Nc1ccc(Cl)cc1Cl)Oc1ccccc1` (configuration not stated), inactive: 96%.
For the compound `CP(=O)(OC12CC3CC(CC(C3)C1)C2)OC12CC3CC(CC(C3)C1)C2`, the GTP binding activity (percent of control) is inactive: 104%.
In the case of `CCOC(=O)c1ccc(NP(C)(=O)Oc2ccc(Cl)cc2)cc1` (configuration not stated), the GTP binding activity (percent of control) is inactive: 96%.
For the compound `COc1ccc(OP(C)(=O)Nc2ccc(Br)cc2)cc1` (configuration not stated), the GTP binding activity (percent of control) is inactive: 97%.
For the compound `CCN(CC)CC(O)COC(=O)C(O)(c1ccccc1)C1CCCCC1` (configuration not stated), the GTP binding activity (percent of control) is inactive: 100%.
In the case of `CCc1ccc(OP(C)(=O)Nc2cccnc2)cc1` (configuration not stated), the GTP binding activity (percent of control) is inactive: 95%.
On to `CP(=O)(Oc1ccccc1)N1CCOC1=O` (configuration not stated), for which the GTP binding activity (percent of control) was inactive: 98%.
Take `CP(=O)(Nc1ccc(Cl)cc1)Oc1ccc(F)cc1` (configuration not stated): the GTP binding activity (percent of control) was inactive: 96%.
With `CC(C)(C)c1ccc(OP(C)(=O)O)cc1`, the GTP binding activity (percent of control) was inactive: 110%.
To `COc1ccccc1OP(C)(=O)Nc1ccccc1Br` (configuration not stated) belongs inactive: 104%; to `CN(C)C(=O)c1c([N+](=O)[O-])cc([N+](=O)[O-])cc1[N+](=O)[O-]`, inactive: 107%.
